# Test results as given in PubChem BioAssay AID651800 (The Scripps Research Institute Molecular Screening Center, 2012).
# This is a selection; strong and weak results do not stand in their true shares. Some results for these compounds are left out of this collection, so the calls shown say nothing about other tests. Activity calls are given as the source filed them. Rule as the data show it: active = inhibition above about 19%; inactive = the rest.
# System: T-cell receptor (TCR)
# Test: small molecules blocking TCR binding to CD3 – biochemical, fluorescence, TAMRA-labeled TCR probe, primary screen (AID 651800);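 also: recombinant mutant TCR 2C K166C tagged with TAMRA read by polarization; 0% = receptor in buffer alone and 100% = receptor with positive control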
# Details: at 9.4 µM, hits give high values
row,SMILES,inhibition
1,O=C(NCC1(N2CCCCC2)CCCCC1)c1cccc(Br)c1,inactive: 3.29%
2,Cc1cc(C(=O)NCC2(N3CCCCC3)CCCCC2)ccc1[N+](=O)[O-],inactive: -3.01%
3,CCN1CCCC(OC(=O)C2(O)c3ccccc3C=Cc3ccccc32)C1 (stereo unspecified),inactive: -6.22%
4,COc1ccc(C(=O)NCC2(N(C)C)CCCCC2)cc1,inactive: 5.49%
5,O=C(NCC1(N2CCCCC2)CCCCC1)c1cc(F)c(F)cc1Cl,inactive: 0.03%
6,C=CCN1CCN(CCOC(=O)C(O)(c2ccccc2)c2ccccc2)CC1,inactive: -6.22%
7,CN(C)C1CCCC1OC(=O)C(O)(c1ccccc1)c1ccccc1 (stereo unspecified),inactive: 0.29%
8,CN(C)c1ccc(C(=O)NCC2(N(C)C)CCCCC2)cc1,inactive: -0.19%
9,Cc1ccccc1C(=O)NCC1(N2CCCCC2)CCCCC1,inactive: 3.09%
10,Cc1ccc(C(=O)NCC2(N3CCCCC3)CCCCC2)cc1,inactive: -6.96%
11,CC(C)N1C(=O)CC2(CCN(CCOC(=O)C(O)(c3ccccc3)c3ccccc3)CC2)C1=O,inactive: -9.67%
12,COc1cc(SC)ccc1C(=O)NCC1(N(C)C)CCCCC1,inactive: -4.13%
13,CCN(CC)CC(C)C(C)OC(=O)C(O)(c1ccccc1)c1ccccc1 (stereo unspecified),inactive: 1.38%
14,CN1[C@@H]2CC[C@H]1CC(OC(=O)C(O)(c1ccccc1)c1ccccc1)C2 (stereo partly specified),inactive: 4.6%
15,O=C(NCC1(N2CCCCC2)CCCCC1)c1cc([N+](=O)[O-])ccc1Cl,inactive: 1.32%
16,CN(C)c1cccc(C(=O)NCC2(N(C)C)CCCCC2)c1,inactive: 3.97%
17,O=C(OCCN1CCCC1)C(O)(c1ccccc1)c1ccccc1,inactive: 1.96%
18,CC(C)Oc1ccc(C(=O)NCC2(N(C)C)CCCCC2)cc1,inactive: 5.18%
19,COc1ccc(Br)c(C(=O)NCC2(N3CCCCC3)CCCCC2)c1,inactive: -3.62%
20,C=C(C)C#CC(O)(C(=O)OC1CCN(C)CC1)c1ccccc1 (stereo unspecified),inactive: 5.05%
21,O=C(OC1CN2CCC1CC2)C(CO)(c1ccccc1)c1ccccc1 (stereo unspecified),inactive: 4.85%
22,O=C(NCC1(N2CCCCC2)CCCCC1)c1cccc(Cl)c1,inactive: -6.43%
23,COc1ccc(Cl)cc1C(=O)NCC1(N(C)C)CCCCC1,inactive: 0.65%
24,COc1cccc(C(=O)NCC2(N3CCCCC3)CCCCC2)c1,inactive: -0.73%
25,COc1cc(C(=O)NCC2(N(C)C)CCCCC2)c([N+](=O)[O-])cc1OC,inactive: -2.48%
26,CN(C)C1(CNC(=O)c2ccc(Br)cc2)CCCCC1,inactive: -8.14%
